Activity calls are given as the source filed them. The rule behind the calls is not given here.
What follows are molecules tested on PC-3 (assay: Cytotoxicity against human PC3 cells assessed as reduction in cell viability after 48 hrs by SRB assay).
Format: functional, cell-based
Procedure, shortened: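 Compounds were reduced outside the cells by purified His-tag (Ni column) Ssap-NtrB. The reaction mix held 600 µM NADH and compound (150, 39, 9 µM, or 180, 18, 1.8 nM) and was applied to PC-3 cells. Controls were compound alone in 25 mM Tris/HCl pH 7.5, and enzyme alone at 31 µg/mL. After 48 h, SRB absorbance was read at 492 nm and converted to % viability.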
With O=[N+]([O-])c1cccc(Nc2ccc([N+](=O)[O-])cc2[N+](=O)[O-])c1 the Activity was “inactive”. For Nc1ccc(Nc2ccc([N+](=O)[O-])cc2[N+](=O)[O-])c([N+](=O)[O-])c1, the Activity was “inactive”. With O=[N+]([O-])c1ccc(Nc2cccc(Nc3ccc([N+](=O)[O-])cc3[N+](=O)[O-])c2)c([N+](=O)[O-])c1 the Activity was “inactive”. For O=[N+]([O-])c1ccc(N2CCN(c3ccc([N+](=O)[O-])cc3[N+](=O)[O-])CC2)c([N+](=O)[O-])c1, the Activity was “inactive”. O=[N+]([O-])c1ccc(NCCNc2ccc([N+](=O)[O-])cc2[N+](=O)[O-])c([N+](=O)[O-])c1 was tested, and the Activity was “inactive”. For O=[N+]([O-])c1ccc(Nc2ccc(Nc3ccc([N+](=O)[O-])cc3[N+](=O)[O-])cc2)c([N+](=O)[O-])c1, the Activity was “inactive”. For O=[N+]([O-])c1ccc(NC2CCCCC2Nc2ccc([N+](=O)[O-])cc2[N+](=O)[O-])c([N+](=O)[O-])c1 (configuration not stated), the Activity was “inactive”. With O=[N+]([O-])c1ccc(NC2CCC(Nc3ccc([N+](=O)[O-])cc3[N+](=O)[O-])CC2)c([N+](=O)[O-])c1 (configuration not stated) the Activity was “inactive”. With O=[N+]([O-])c1ccc(NC2CCCC(Nc3ccc([N+](=O)[O-])cc3[N+](=O)[O-])C2)c([N+](=O)[O-])c1 (configuration not stated) the Activity was “inactive”. For O=[N+]([O-])c1ccc(NCCCCNc2ccc([N+](=O)[O-])cc2[N+](=O)[O-])c([N+](=O)[O-])c1, the Activity was “inactive”. O=[N+]([O-])c1ccc(Nc2ccc([N+](=O)[O-])cc2[N+](=O)[O-])c(Nc2ccc([N+](=O)[O-])cc2[N+](=O)[O-])c1 was tested, and the Activity was “inactive”. With O=[N+]([O-])c1ccc(Nc2ccc([N+](=O)[O-])cc2[N+](=O)[O-])cc1 the Activity was “inactive”.

From ChEMBL document CHEMBL4376859, “Prodrugs for nitroreductase-based cancer therapy-3: Antitumor activity of the novel dinitroaniline prodrugs/Ssap-NtrB enzyme suicide gene system: Synthesis, in vitro and in silico evaluation in prostate cancer” (Eur J Med Chem, 2020)
